Test results published in the CheMixHub viscosity set.
“And” between values parts separate entries of the source, which are not always exact repeats. Equal entries are not always repeated.

Assay: xn = mol fraction of the nth substance listed

OCCOCCOCCOCCO + COCCO
viscosity [mPa·s], 101 kPa
Conditions	293.15 K	298.15 K	303.15 K
x2 = 0.0725	46.35	39.14	31.64
x2 = 0.1073	43.17	36.72	29.69
x2 = 0.1599	38.54	33.16	26.82
x2 = 0.2016	35.04	30.45	24.66
x2 = 0.2489	31.3	27.47	22.3
x2 = 0.3027	27.33	24.24	19.77
x2 = 0.3523	23.94	21.44	17.62
x2 = 0.4136	20.14	18.11	15.1
x2 = 0.4537	17.87	16.11	13.57
x2 = 0.4979	15.58	14.05	12.02
x2 = 0.5484	13.2	11.87	10.28
x2 = 0.6014	11	9.852	8.723
x2 = 0.6523	9.117	8.152	7.342
x2 = 0.6991	7.604	6.801	6.195
x2 = 0.7477	6.243	5.586	5.137
x2 = 0.7997	4.983	4.506	4.166
x2 = 0.8523	3.917	3.59	3.323
x2 = 0.892	3.214	3	2.772
x2 = 0.9486	2.372	2.235	2.067

OCCOCCOCCOCCO + C[N+](C)(C)CCO.[Cl-]
viscosity, 101.33 kPa
Conditions	298.15 K	298.17 K	298.18 K	298.19 K	303.17 K	303.18 K	313.15 K	313.16 K	313.17 K
x1 = 0.8	78.9 mPa·s	77.65 mPa·s	–	–	–	66.67 mPa·s and 64.47 mPa·s	–	47.69 mPa·s	45.74 mPa·s
x1 = 0.9	–	–	65.41 mPa·s	66.11 mPa·s	45.01 mPa·s	54.07 mPa·s	34.99 mPa·s	45.5 mPa·s	–

OCCOCCOCCOCCO + FCC(F)(F)F
viscosity [mPa·s], 101.32 kPa
Conditions	x1 = 0.698	x1 = 0.7	x1 = 0.82	x1 = 0.821	x1 = 0.888	x1 = 0.889
293.15 K	9.94	–	21.1	–	32.9	–
313.15 K	–	4.99	–	9.21	–	13.5

OCCOCCOCCOCCO + O=S1(=O)CCCC1
303.15 K, 101 kPa
Conditions	viscosity [mPa·s]
x2 = 0.0511	33.89
x2 = 0.0993	32.17
x2 = 0.1997	28.58
x2 = 0.3005	25.15
x2 = 0.3969	22.22
x2 = 0.4521	20.7
x2 = 0.4986	19.51
x2 = 0.55	18.27
x2 = 0.5937	17.28
x2 = 0.6989	15.04
x2 = 0.801	13.02
x2 = 0.899	11.29
x2 = 0.9457	10.65
